Biological target: DPP4 (Mus musculus, UniProt P28843)
Type: biochemical

The chains behind the UniProt entries cited, without tags or fusion partners. Where a name states a change or a piece, a line headed by the entry shows the natural chain unless it says otherwise.
UniProt P28843: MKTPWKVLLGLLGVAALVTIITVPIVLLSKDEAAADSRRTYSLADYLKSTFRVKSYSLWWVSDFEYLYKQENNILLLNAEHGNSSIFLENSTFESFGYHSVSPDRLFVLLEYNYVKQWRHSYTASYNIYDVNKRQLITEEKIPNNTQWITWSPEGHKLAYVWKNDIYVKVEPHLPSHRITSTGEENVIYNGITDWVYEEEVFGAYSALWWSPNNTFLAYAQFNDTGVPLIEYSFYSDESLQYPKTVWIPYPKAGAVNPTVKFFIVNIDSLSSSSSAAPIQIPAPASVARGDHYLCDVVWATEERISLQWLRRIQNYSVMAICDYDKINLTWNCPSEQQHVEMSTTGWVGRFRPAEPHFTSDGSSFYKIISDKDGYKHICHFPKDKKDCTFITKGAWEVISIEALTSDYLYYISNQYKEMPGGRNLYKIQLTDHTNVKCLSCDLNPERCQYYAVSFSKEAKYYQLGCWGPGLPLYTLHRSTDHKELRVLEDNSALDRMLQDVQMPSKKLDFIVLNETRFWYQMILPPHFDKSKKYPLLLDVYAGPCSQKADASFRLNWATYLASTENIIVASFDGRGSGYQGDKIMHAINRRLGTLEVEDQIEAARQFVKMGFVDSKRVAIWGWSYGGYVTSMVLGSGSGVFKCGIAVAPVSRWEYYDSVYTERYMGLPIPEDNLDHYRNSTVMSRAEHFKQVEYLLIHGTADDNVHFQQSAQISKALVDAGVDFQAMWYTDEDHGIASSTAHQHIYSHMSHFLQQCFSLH

- reduction of the production of PHI(3–27): > 100 fold
Structure (SMILES): N#C[C@@H]1CCCN1C(=O)CNC12CC3CC(CC(O)(C3)C1)C2 [LAF-237, 1-[[(3-hydroxy-1-adamantyl)amino]acetyl]-2-cyano-(S)-pyrrolidine]
